Laboratory results published in PubChem BioAssay AID588352 (The Scripps Research Institute Molecular Screening Center, 2011).
The list shows a part of the results, in another mix than the full data. Some structures show a salt or complex split into parts, the way the source records it. Calls of active or inactive are those of the source.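 The calls were made as follows: active = inhibition above a per-campaign cutoff, the mean of all compounds plus 3 SD (cut at about 60% in these data); inactive = the rest.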

By UniProt entry, the sequences of proteins in these tests, tags left out.
UniProt Q9Y6Q9, whole entry: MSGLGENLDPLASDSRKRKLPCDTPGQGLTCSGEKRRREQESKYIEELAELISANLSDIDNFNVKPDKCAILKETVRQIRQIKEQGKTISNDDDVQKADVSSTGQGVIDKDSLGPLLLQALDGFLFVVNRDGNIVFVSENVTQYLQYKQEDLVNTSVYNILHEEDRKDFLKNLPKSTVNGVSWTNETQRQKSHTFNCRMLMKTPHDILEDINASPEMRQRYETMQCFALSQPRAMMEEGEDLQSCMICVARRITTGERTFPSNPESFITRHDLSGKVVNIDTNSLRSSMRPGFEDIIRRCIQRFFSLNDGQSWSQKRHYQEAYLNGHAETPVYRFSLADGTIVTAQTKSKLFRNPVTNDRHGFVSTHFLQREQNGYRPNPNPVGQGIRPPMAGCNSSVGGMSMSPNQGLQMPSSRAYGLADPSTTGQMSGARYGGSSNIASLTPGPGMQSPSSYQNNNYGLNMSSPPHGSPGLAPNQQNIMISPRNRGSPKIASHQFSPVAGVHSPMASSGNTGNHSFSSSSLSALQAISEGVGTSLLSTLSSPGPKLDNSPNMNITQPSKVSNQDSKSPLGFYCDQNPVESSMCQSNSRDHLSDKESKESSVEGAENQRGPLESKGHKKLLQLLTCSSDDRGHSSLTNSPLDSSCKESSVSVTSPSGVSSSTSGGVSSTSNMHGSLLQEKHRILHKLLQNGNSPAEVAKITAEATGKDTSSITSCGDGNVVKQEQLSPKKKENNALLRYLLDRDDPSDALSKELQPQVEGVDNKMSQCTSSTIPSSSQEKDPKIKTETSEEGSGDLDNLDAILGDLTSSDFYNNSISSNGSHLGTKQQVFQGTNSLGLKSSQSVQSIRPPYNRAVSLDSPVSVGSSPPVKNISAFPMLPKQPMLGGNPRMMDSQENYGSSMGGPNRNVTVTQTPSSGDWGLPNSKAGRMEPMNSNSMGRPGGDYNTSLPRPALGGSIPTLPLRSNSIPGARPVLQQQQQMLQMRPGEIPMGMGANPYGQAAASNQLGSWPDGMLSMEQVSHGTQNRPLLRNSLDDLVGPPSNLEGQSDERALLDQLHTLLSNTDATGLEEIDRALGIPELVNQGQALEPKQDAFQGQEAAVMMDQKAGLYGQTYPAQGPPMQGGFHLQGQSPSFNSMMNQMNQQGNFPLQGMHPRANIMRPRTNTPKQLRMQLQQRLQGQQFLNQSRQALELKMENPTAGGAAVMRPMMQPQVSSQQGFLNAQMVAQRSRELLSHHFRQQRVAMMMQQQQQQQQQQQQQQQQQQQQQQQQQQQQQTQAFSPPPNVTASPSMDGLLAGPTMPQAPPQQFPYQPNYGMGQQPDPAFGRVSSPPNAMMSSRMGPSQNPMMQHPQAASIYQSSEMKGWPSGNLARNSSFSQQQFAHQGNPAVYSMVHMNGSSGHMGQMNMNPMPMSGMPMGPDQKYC

What follows are molecules tested against Nuclear receptor coactivator 3 (Homo sapiens) (UniProt Q9Y6Q9) (assay: SRC3 coactivator transcriptional activity inhibitors, primary screen, cell-based, luminescence (AID 588352;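 also: 0% = DMSO-treated cells and 100% = gossypol-treated cells at 36 µM; higher means less SRC3-driven luciferase light from the GAL4 reporter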)). Conditions: HEK293 GAL4-SRC3 luciferase reporter, at 3.6 µM, active compounds read high.
In the case of O=[N+]([O-])c1cc([N+](=O)[O-])c(Nc2ccc(Cl)cc2)c([N+](=O)[O-])c1, the inhibition is reported as inactive: -28.6%.
For CP(=O)(Nc1ccccc1F)Oc1ccccc1 (configuration not stated), the inhibition was inactive: 13.3%.
For CC(C)c1ccc(OP(C)(=O)Nc2ccc(SC(F)(F)F)cc2)cc1 (configuration not stated), the inhibition was inactive: 12.7%.
For O=C(OC1CN2CCC1CC2)c1ccc([N+](=O)[O-])cc1 (configuration not stated), the inhibition was inactive: -2.23%.
In the case of O=C(OCCN1CCN(CCOCc2ccccc2)CC1)C(O)(c1ccccc1)c1ccccc1, the inhibition is reported as inactive: 17.6%.
In the case of COc1ccc2c(c1O)-c1c(O)c(OC)cc3c1[C@H](C2)[N+](C)(C)CC3.O=[N+]([O-])c1cc([N+](=O)[O-])c([O-])c([N+](=O)[O-])c1[O-], the inhibition is reported as inactive: -5%.
For CCOC(=O)c1ccc(NP(C)(=O)Oc2ccc(F)cc2)cc1 (configuration not stated), the inhibition was inactive: 0.75%.
COc1ccc(OP(C)(=O)Nc2ccc(SC(F)(F)F)cc2)cc1 (configuration not stated) was tested, and the inhibition was inactive: 14.1%.
For Cc1c([N+](=O)[O-])cc([N+](=O)[O-])c(Br)c1[N+](=O)[O-], the inhibition was inactive: -23.1%.
CCN(CC)CCCOC(=O)C(O)(c1ccccc1)C1CCCCC1 (configuration not stated) was tested, and the inhibition was inactive: 4%.
In the case of CP(=O)(Nc1ccccc1)Oc1ccc(F)cc1 (configuration not stated), the inhibition is reported as inactive: -1.57%.
For O=[N+]([O-])c1cc([N+](=O)[O-])c(OC2CCCCC2O)c([N+](=O)[O-])c1 (configuration not stated), the inhibition was inactive: -24.9%.
CCCCCOc1ccc(NP(C)(=O)Oc2ccc(Cl)cc2Cl)cc1 (configuration not stated) was tested, and the inhibition was inactive: 6.04%.
COc1ccc(OP(C)(=O)Nc2cccc(Br)c2)cc1 (configuration not stated) was tested, and the inhibition was inactive: 8.71%.
For CN(C)CCOC(=O)C(O)(c1ccccc1)C1CCCCC1 (configuration not stated), the inhibition was inactive: -13.5%.
In the case of COc1ccc(NP(C)(=O)Oc2ccccc2OC)cc1 (configuration not stated), the inhibition is reported as inactive: 15.6%.
In the case of O=[N+]([O-])c1ccc(OP2(=O)COCCO2)cc1 (configuration not stated), the inhibition is reported as inactive: -9.68%.
For Cc1cc(-c2cccc3ccccc23)c(C)cn1.O=[N+]([O-])c1cc([N+](=O)[O-])c(O)c([N+](=O)[O-])c1, the inhibition was inactive: 0.51%.
With O=[N+]([O-])c1cc([N+](=O)[O-])c(NCC2CCS(=O)(=O)C2)c([N+](=O)[O-])c1 (configuration not stated) the inhibition was inactive: -11.4%.
Cc1c(C(c2ccc3c(c2)OCO3)c2c(C)n(C)n(-c3ccccc3)c2=O)c(=O)n(-c2ccccc2)n1C.O=[N+]([O-])c1cc([N+](=O)[O-])c(O)c([N+](=O)[O-])c1 was tested, and the inhibition was inactive: 13.8%.
With CP(=O)(Nc1ccc(SC(F)(F)F)cc1)Oc1ccc(F)cc1 (configuration not stated) the inhibition was inactive: 14.9%.
CCOP(C)(=S)SCC(=O)NC(C)(CC)C(=O)O (configuration not stated) was tested, and the inhibition was inactive: -10.5%.
CP(=O)(Nc1ccc2c(c1)OCCO2)Oc1ccccc1 (configuration not stated) was tested, and the inhibition was inactive: 13.5%.
For Cc1ccccc1NP(C)(=O)Nc1ccccc1C, the inhibition was inactive: 13.3%.
For COc1ccc(OP(C)(=O)Nc2ccc(Br)cc2)cc1 (configuration not stated), the inhibition was inactive: 17.8%.
CCN(CC)CC(O)COC(=O)C(O)(c1ccccc1)C1CCCCC1 (configuration not stated) was tested, and the inhibition was inactive: 17.6%.
With O=C(OCCCN1CCCC1)C(O)(c1ccccc1)C1CCCCC1 (configuration not stated) the inhibition was inactive: 9.65%.
For COc1ccccc1OP(C)(=O)Nc1c(C)n(C)n(-c2ccccc2)c1=O (configuration not stated), the inhibition was inactive: 0.87%.
For CCc1ccc(OP(C)(=O)Nc2cccnc2)cc1 (configuration not stated), the inhibition was inactive: 8.79%.
For CP(=O)(Oc1ccccc1)N1CCOC1=O (configuration not stated), the inhibition was inactive: -3.2%.
CC(C)(C)c1ccc(OP(C)(=O)O)cc1 was tested, and the inhibition was inactive: 3.89%.
For COc1ccccc1OP(C)(=O)Nc1ccccc1Br (configuration not stated), the inhibition was inactive: 6.49%.
CP(=O)(Nc1ccc(Cl)cc1)Oc1ccc(F)cc1 (configuration not stated) was tested, and the inhibition was inactive: 15.1%.
For CN(C)C(=O)c1c([N+](=O)[O-])cc([N+](=O)[O-])cc1[N+](=O)[O-], the inhibition was inactive: 6.34%.
For CCOC(=O)c1ccc(NP(C)(=O)Oc2ccc(Cl)cc2)cc1 (configuration not stated), the inhibition was inactive: -0.39%.
For CP(=O)(OC12CC3CC(CC(C3)C1)C2)OC12CC3CC(CC(C3)C1)C2, the inhibition was inactive: 12.1%.
For Cc1cc(C)cc(OP(C)(=O)Nc2cccc(C(F)(F)F)c2)c1 (configuration not stated), the inhibition was inactive: 7.57%.
In the case of O=C1C(O)=C([N+](=O)[O-])C(=O)C(O)=C1[N+](=O)[O-], the inhibition is reported as inactive: -4.47%.
In the case of COc1ccccc1OP(C)(=O)Nc1ccc(C)c(C)c1 (configuration not stated), the inhibition is reported as inactive: 5.49%.
For COc1ccc(OP(C)(=O)Nc2ccccc2Br)cc1 (configuration not stated), the inhibition was inactive: -19.6%.
With CP(=O)(OCCOc1ccccc1)OCCOc1ccccc1 the inhibition was inactive: 14.5%.
CP(=O)(Nc1ccc(Cl)cc1Cl)Oc1ccccc1 (configuration not stated) was tested, and the inhibition was inactive: 25.2%.
In the case of CCCCCCCCCCCCCCCC1C[N+](C)(C)CCOP(C)(=O)O1 (configuration not stated), the inhibition is reported as inactive: -14.2%.
With COc1ccccc1OP(C)(=O)Nc1ccc(Br)cc1 (configuration not stated) the inhibition was inactive: -12.3%.
With COc1ccc(OP(C)(=O)Nc2ccccn2)cc1 (configuration not stated) the inhibition was inactive: -9.68%.
CN(C)CCOC(=O)C(O)(c1ccccc1)C1CCCC1 (configuration not stated) was tested, and the inhibition was inactive: 10.2%.
O=[N+]([O-])c1cc([N+](=O)[O-])c(Nc2ccccn2)c([N+](=O)[O-])c1 was tested, and the inhibition was inactive: 0.92%.
